# Laboratory results as given in patent US20110294730A1, “METHOD OF TREATING GLAUCOMA AND INTRAOCULAR HYPERTENSION” (priority 2010, published 2011).
# Read-outs that look alike come from different tables or passages of the source.
# Key:
# [1] = deposited in the conjunctival sac
# [2] = local application: balding scalp, eye lid hair line, oral and nasal mucosa, conjunctival sac, up to 3-5 IU to both eyes
substance,measurement,setting,value
insulin,absorption from the conjunctival sac,[1],rapidly absorbed
same,change of blood sugar (hypoglycemic effects),[2],did not change the blood sugar
same,change of blood sugar (hypoglycemic effects),[2]; listed as Insulin eye drops,does not change the blood glucose levels
